Assay [1] concerns the target 5-hydroxytryptamine receptor 2B (Rattus norvegicus, UniProt P30994).
Assay [2] concerns the target 5-hydroxytryptamine receptor 2C (Homo sapiens, UniProt P28335).
The target of assay [3] is 5-hydroxytryptamine receptor 2A (Homo sapiens, UniProt P28223).

Sequences of proteins named here, by UniProt entry; tags and fusion partners are left off. A change or cut given only in a name is not applied to a line headed by its entry.
UniProt P30994, whole entry: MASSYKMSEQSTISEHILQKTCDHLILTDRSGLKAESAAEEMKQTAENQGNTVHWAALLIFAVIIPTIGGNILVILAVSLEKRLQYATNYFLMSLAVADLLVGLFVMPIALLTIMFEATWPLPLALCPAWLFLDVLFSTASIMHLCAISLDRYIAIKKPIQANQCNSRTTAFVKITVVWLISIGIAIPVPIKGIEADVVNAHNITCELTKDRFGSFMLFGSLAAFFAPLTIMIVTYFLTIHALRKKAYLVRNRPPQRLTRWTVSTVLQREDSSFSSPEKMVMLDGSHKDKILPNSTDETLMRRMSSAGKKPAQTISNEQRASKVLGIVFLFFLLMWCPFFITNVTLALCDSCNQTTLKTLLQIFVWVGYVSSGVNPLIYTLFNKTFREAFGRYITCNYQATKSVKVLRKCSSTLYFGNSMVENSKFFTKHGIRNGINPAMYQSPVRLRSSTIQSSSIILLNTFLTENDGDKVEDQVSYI
UniProt P28335: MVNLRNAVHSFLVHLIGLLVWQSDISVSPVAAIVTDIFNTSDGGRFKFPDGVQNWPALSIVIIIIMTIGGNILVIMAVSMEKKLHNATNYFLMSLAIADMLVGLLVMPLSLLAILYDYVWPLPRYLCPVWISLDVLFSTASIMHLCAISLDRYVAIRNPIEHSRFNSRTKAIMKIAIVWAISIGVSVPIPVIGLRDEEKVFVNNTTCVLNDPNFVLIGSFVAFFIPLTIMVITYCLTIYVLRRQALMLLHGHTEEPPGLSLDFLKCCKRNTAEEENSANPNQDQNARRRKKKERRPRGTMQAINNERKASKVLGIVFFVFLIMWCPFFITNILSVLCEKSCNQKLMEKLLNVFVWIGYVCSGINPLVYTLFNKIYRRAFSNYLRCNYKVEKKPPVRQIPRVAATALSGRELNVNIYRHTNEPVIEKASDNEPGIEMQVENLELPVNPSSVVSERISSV
UniProt P28223, whole entry: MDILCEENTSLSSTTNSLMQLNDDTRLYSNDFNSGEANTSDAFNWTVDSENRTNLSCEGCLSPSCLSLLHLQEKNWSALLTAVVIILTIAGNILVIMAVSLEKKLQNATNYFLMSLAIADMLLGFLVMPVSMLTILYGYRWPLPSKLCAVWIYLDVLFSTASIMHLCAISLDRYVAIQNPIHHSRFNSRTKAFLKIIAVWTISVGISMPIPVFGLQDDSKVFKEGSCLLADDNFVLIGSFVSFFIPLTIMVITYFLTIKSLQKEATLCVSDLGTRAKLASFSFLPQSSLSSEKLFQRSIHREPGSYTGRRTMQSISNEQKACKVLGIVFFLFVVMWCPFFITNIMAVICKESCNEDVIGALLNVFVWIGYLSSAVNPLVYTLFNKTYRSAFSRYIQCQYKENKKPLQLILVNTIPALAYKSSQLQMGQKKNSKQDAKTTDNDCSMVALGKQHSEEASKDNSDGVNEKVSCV

`O=C(CCCN1CCC2(CC1)C(=O)NCN2c1ccccc1)c1ccc(F)cc1` [8-[4-(4-fluorophenyl)-4-oxidanylidene-butyl]-1-phenyl-1,3,8-triazaspiro[4.5]decan-4-one] had a Ki in assay [1] of 3000 nM.

`COC(=O)[C@@H]1[C@H]2C[C@H]3c4[nH]c5ccccc5c4CCN3C[C@@H]2CC[C@@H]1O` [yohimbic acid methyl ester]: the Ki in assay [2] is 1690 nM. `CN1C[C@H](C(=O)NC2CCCCC2)C[C@@H]2c3cccc4[nH]cc(c34)C[C@H]21` [LY-193525] returned a Ki in assay [3] of 0.9 nM.

By Ki is commonly meant the dissociation constant of the complex between target and ligand, obtained from inhibition or displacement. A high value points to weaker binding.

Values taken from BindingDB's records for PubMed 8632342 (Eli Lilly, 1996).
